The text below walks through data of patent US6156769A (priority 2000, dated 2000).

This test relates to scratching induced by Compound 48/80 in mice. Put plainly: mouse scratch model (antagonism of scratching induced by Compound 48/80). Type of test: in vivo, male Swiss albino mice. Conditions: Compound 48/80 challenge, 30 min observation.

Take `CN(C(=O)Cc1cccc2occc12)[C@H]1CC[C@@]2(CCCO2)C[C@@H]1N1CCCC1`: the “% Inhibition (of scratching)” value by setting is: (2.5 mg/kg s.c.) 30%; (5.0 mg/kg s.c.) 57%; (10.0 mg/kg s.c.) 75%; (30.0 mg/kg s.c.) 92%.
